## Measured affinities in a library of Ab-14 heavy chain variants

Antigen: PDVDLGDISGINAS, a 14-residue peptide of the SARS-CoV-2 spike HR2 region.

The variants keep the light chain, the linker and the frameworks of Ab-14 (scFv order VH, a (GGGGS)3 linker, VL).
VH: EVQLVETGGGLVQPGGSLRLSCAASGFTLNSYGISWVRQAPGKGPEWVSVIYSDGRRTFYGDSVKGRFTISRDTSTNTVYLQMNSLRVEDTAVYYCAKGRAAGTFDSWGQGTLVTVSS
VL: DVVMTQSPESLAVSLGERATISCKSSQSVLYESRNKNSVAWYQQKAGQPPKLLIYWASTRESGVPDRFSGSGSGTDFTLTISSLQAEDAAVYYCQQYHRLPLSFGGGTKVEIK

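Phage display of a naive human antibody library on the peptide gave the parent. This is the validation round: designs drawn from the data on random variants, tested in the same kind of assay. Group labels follow the data file (Rand: our label for a block that the file lists under HC and that is probably the random mutants of the ten best first-round binders; En: ensemble of fine-tuned language models; HC: hill climbing; Gen: genetic algorithm; Gibbs: Gibbs sampling; a sequence that several methods proposed may carry one label only). In AlphaSeq, yeast of one mating type display the scFv and yeast of the other type display the target. Pairs that bind mate more often; barcode pairs of the diploids are counted by sequencing. The ratio of observed to expected reads was calibrated, replicate by replicate, on BCL2-family standards whose Kd was known from biolayer interferometry. Mating was done six times.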

Variants are written as CDR1, CDR2 and CDR3 of the heavy chain (limits as in the source). Parent: GFTLNSYGIS, VIYSDGRRTFYGDSVK, GRAAGTFDS.
This list holds designs with more than six substitutions.
Each Kd is an estimate from the mating assay, the geometric mean of the replicates in which the pair was seen; lower is stronger.
A pair that was not seen in any replicate is written "nd"; this usually means weak binding, but a binder can also be missed.
The list is sorted by this average, lowest first, undetected variants last.
Three control strains display no target. For all heavy chain designs, 1% of the pairings with them gave a signal, with a median of 120 nM and one signal in twenty below 7.0 nM, so weak values seen in few replicates may be background.

The variant GFDLNEYGIS | VIYADGRRTFYADSVK | GQNAGTFDM [En_HC] showed 47 pM (5 of 6 replicates). The variant GFSLDEYGIS | VIYADGRRTFYQDNVK | GNVAGTFDV [En_HC] showed 48 pM (6 of 6 replicates). For GFDLNEYGIS | VIYADGMRTAYADNVK | GQNAGTFDI [En_Gen], the assay gave 130 pM (6 of 6 replicates). The variant GFDLNEYGIS | VIYADGMRTAYADSVK | GNVAGTFDE [En_Gen] gave 150 pM (6 of 6 replicates). The variant GFDLDEYGIS | VIYADGQRTAYTDSVK | GNVAGTFDQ [En_Gen] showed 150 pM (6 of 6 replicates). The variant GFDLNEYGIS | VIYADGQRSFYADSVK | GQLAGTFDV [En_HC] showed 160 pM (6 of 6 replicates).

With GFNLNEYGIS | VIYADGVRTAYADSVK | GNVAGTFDV [En_Gen] the result was 170 pM (6 of 6 replicates). The variant GFDLNEYGIS | VIYADGVRTAYADSVK | GSVAGTFDV [En_Gen] showed 210 pM (6 of 6 replicates). The variant GFDLNEYGIS | VIYADGMRTAYADSVK | GNHAGTFDL [En_Gen] showed 220 pM (6 of 6 replicates). For GFDLNEYGIS | VIYADGRRTFYQDSVK | GNLAGTFDQ [En_HC], the assay gave 250 pM (6 of 6 replicates). The variant GFDLNEYGIS | VIYADGMRTAYQDSVK | GEVAGTFDV [En_Gen] showed 250 pM (6 of 6 replicates). For GFDLNEYGIS | VIYADGKRTAYSDSVK | GEVAGTFDI [En_Gen], the assay gave 260 pM (6 of 6 replicates).

For GFTLDEYGIS | VIYADGRRTFYSDSVK | GNTAGTFDV [En_HC], the assay gave 270 pM (6 of 6 replicates). For GFNLNEYGIS | VIYADGKRSFYSDSVK | GEAAGTFDV [En_HC], the assay gave 270 pM (6 of 6 replicates). For GFDLNEYGIS | VIYADGMRTAYTDSVK | GETAGTFDQ [En_Gen], the assay gave 290 pM (6 of 6 replicates). The variant GFDLDEYGIS | VIYADGMRTAYTDSVK | GNEAGTFDL [En_Gen] gave 300 pM (6 of 6 replicates). The variant GFDLNEYGIS | VIYADGKRTFYIDSVK | GEAAGTFDM [En_HC] showed 310 pM (6 of 6 replicates). With GFDLNEYGIS | VIYADGRRTFYSDSVK | GNNAGTFDM [En_HC] the result was 320 pM (6 of 6 replicates).

With GFDLDEYGIS | VIYADGMRTAYADNVK | GNQAGTFDL [En_Gen] the result was 360 pM (6 of 6 replicates). For GFDLNEYGIS | VIYADGMRTAYSDDVK | GENAGTFDL [En_Gen], the assay gave 380 pM (6 of 6 replicates). With GFDLNEYGIS | VIYADGRRTFYSDSVK | GQLAGTFDD [En_HC] the result was 390 pM (6 of 6 replicates). For GFDLDEYGIS | VIYADGRRTAYSDSVK | GENAGTFDI [En_Gen], the assay gave 440 pM (6 of 6 replicates). The variant GFDLNEYGIS | VIYADGRRTFYADSVK | GSNAGTFDV [En_HC] gave 460 pM (6 of 6 replicates). The variant GFDLNEYGIS | VIYADGMRKAYADDVK | GNEAGTFDV [En_Gen] gave 510 pM (6 of 6 replicates).

The variant GFDLNEYGIS | VIYADGFRTFYTDSVK | GEVAGTFDN [En_HC] gave 560 pM (6 of 6 replicates). The variant GFDLNEYGIS | VIYADGRRTAYIDSVK | GHAAGTFDE [En_HC] gave 610 pM (6 of 6 replicates). The variant GFDLDEYGIS | VIYADGMRTFYADSVK | GEVAGTFDL [En_Gen] gave 750 pM (6 of 6 replicates). For GFDLDEYGIS | VIYADGKRTAYADDVK | GTNAGTFDV [En_Gen], the assay gave 770 pM (6 of 6 replicates). The variant GFDLNEYGIS | VIYADGQRTYYADSVK | GEVAGTFDL [En_Gen] showed 1.1 nM (6 of 6 replicates). The variant GFDLDEYGIS | VIYADGRRTFYADSVK | GELAGTFFT [En_HC] gave 1.2 nM (6 of 6 replicates).

With GFDLNEYGIS | VIYADGRRTQYIDSVK | GNVAGTFDE [En_HC] the result was 1.4 nM (4 of 6 replicates). The variant GFDINEYGIS | VIYADGRRTQYADSVK | GENAGTFDS [En_HC] gave 1.4 nM (1 of 6 replicates). For GFDLNEYGIS | VIYADGVRTFYTDSVK | GENAGTFDI [En_HC], the assay gave 1.5 nM (6 of 6 replicates). With GFDLNEYGIS | VIYADGRRTSYKDSVK | GEEAGTFNV [En_HC] the result was 1.6 nM (6 of 6 replicates). The variant GFDLNEYGIS | VIYADGMRTYYADSVK | GENAGTFDI [En_Gen] showed 2.1 nM (6 of 6 replicates). With GFDLNEYGIS | VIYADGRRTFYTDSVK | GNAAGTFVV [En_HC] the result was 9.6 nM (6 of 6 replicates).

For GFELDEMGIS | VIYADGKRAAYSDNVK | GDNRGIFHM [En_Gibbs], the assay gave 110 nM (1 of 6 replicates). The variant GFDVDEYGIS | VIYADGKRSMYANSVK | GGIGGMFFQ [En_Gibbs] showed 190 nM (1 of 6 replicates). With GFDLNEYGIS | VIYADGRRTFYADSVK | GNNAGTFIT [En_HC] the result was 260 nM (2 of 6 replicates). The variant GDNLEEYGIS | VIYADGKRSVYADSVK | GHISGWFDI [En_Gibbs] showed 740 nM (2 of 6 replicates). The variant GFDLMEYGVS | VIYADGQRAFYTDSVK | GKGAGTALI [En_Gibbs] gave nd (0 of 6 replicates). With GFDLEEYGIS | VIYADGKRSQYTDAVK | GKFLDMMTY [En_Gibbs] the result was nd (0 of 6 replicates).

The variant GFVLDEYGIS | VIYADGHRTVYAEDFK | GQNGGNFHH [En_Gibbs] gave nd (0 of 6 replicates). The variant GFNLDEYGIS | VIYADGTRRYYADNVK | GDYVYVNST [En_Gibbs] gave nd (0 of 6 replicates). For GFGLDEFGIS | VIYADGQRTAYANSFK | GVNSNAYDT [En_Gibbs], the assay gave nd (0 of 6 replicates). For GFDLNEFGIS | VIYADGSRASYADKVK | GLNGGQLIV [En_Gibbs], the assay gave nd (0 of 6 replicates). The variant GFNLDEYGIS | VIYADGVRKAYANKVK | GKVHWFHLQ [En_Gibbs] gave nd (0 of 6 replicates). The variant GFDLDEMGIS | VIYADGKRAAYQGNVK | GTNNGNFNE [En_Gibbs] showed nd (0 of 6 replicates).

With RFNLNWYGIS | VIYSDHRRTFYGPSVK | GRAAGWFNS [Rand] the result was nd (0 of 6 replicates). The variant YFTLNEYGNS | VIYSDGRRTFYDDHVK | GRAQVTFDQ [Rand] showed nd (0 of 6 replicates). With GFNLDEYGVS | VIYADGHRTAYVNTVK | GKTGVVDDD [En_Gibbs] the result was nd (0 of 6 replicates). The variant GADIQEYGIS | VIYADGIRTAYAQNVK | GEYDSQFDI [En_Gibbs] gave nd (0 of 6 replicates).

The first 6 entries again:

| CDR-H1 | CDR-H2 | CDR-H3 | group | Kd | detected |
|---|---|---|---|---|---|
| GFDLNEYGIS | VIYADGRRTFYADSVK | GQNAGTFDM | En_HC | 47 pM | 5/6 |
| GFSLDEYGIS | VIYADGRRTFYQDNVK | GNVAGTFDV | En_HC | 48 pM | 6/6 |
| GFDLNEYGIS | VIYADGMRTAYADNVK | GQNAGTFDI | En_Gen | 130 pM | 6/6 |
| GFDLNEYGIS | VIYADGMRTAYADSVK | GNVAGTFDE | En_Gen | 150 pM | 6/6 |
| GFDLDEYGIS | VIYADGQRTAYTDSVK | GNVAGTFDQ | En_Gen | 150 pM | 6/6 |
| GFDLNEYGIS | VIYADGQRSFYADSVK | GQLAGTFDV | En_HC | 160 pM | 6/6 |

A sequence measured in both rounds can read differently, since the two assays cover different ranges.
In the paper, a design with two or fewer of six values counts as a poor binder.
The parent sequence was in this pool as ten entries: three were never detected, three once, and four in most replicates, with averages from 2.2 nM to 240 nM.

The measurements come from Li et al. 2023 (doi:10.1038/s41467-023-39022-2) through the FLAb antibody collection.